{
  "source": "patent US20260076970A1",
  "about": "“CANCER TREATMENT USING MTDP INHIBITORS AND PLK1 INHIBITORS” (Cardiff Oncology, Inc., priority 2022, published 2026)",
  "tested_on": "cell lines, from both solid and hematologic tumors",
  "test": "proliferation assays",
  "conditions": "large number of cell lines",
  "data": [
    {"smiles": "CN1CCN(c2ccc(OC(F)(F)F)c(Nc3ncc4c(n3)-c3c(c(C(N)=O)nn3CCO)CC4)c2)CC1", "note": "[onvansertib, 1-(2-hydroxyethyl)-8-{[5-(4-methylpiperazin-1-yl)-2-(trifluoromethoxy)phenyl]amino}-4,5-dihydro-1H-pyrazolo[4,3-h]quinazoline-3-carboxamide]", "values": [
      {"measurement": "potency in proliferation assays", "value": "low nanomolar activity"}
    ]}
  ]
}
